Consider one molecule from patent EP3150203B1, “COMPOUNDS WITH (1E,6E)-1,7-BIS-(3,4- DIMETHOXYPHENYL)-4,4-DISSTITUTED-HEPA-1,6-DIENE-3,5-DI-ONE STRUCTURAL SCAFFOLD,THEIR BIOLOGICAL ACTIVITY, AND USES THEREOF” (Allianz Pharmascience Ltd, priority 2012, dated 2013).

Amino acid sequences for entries named in this document (tags omitted).
UniProt P10275, whole entry H875Y: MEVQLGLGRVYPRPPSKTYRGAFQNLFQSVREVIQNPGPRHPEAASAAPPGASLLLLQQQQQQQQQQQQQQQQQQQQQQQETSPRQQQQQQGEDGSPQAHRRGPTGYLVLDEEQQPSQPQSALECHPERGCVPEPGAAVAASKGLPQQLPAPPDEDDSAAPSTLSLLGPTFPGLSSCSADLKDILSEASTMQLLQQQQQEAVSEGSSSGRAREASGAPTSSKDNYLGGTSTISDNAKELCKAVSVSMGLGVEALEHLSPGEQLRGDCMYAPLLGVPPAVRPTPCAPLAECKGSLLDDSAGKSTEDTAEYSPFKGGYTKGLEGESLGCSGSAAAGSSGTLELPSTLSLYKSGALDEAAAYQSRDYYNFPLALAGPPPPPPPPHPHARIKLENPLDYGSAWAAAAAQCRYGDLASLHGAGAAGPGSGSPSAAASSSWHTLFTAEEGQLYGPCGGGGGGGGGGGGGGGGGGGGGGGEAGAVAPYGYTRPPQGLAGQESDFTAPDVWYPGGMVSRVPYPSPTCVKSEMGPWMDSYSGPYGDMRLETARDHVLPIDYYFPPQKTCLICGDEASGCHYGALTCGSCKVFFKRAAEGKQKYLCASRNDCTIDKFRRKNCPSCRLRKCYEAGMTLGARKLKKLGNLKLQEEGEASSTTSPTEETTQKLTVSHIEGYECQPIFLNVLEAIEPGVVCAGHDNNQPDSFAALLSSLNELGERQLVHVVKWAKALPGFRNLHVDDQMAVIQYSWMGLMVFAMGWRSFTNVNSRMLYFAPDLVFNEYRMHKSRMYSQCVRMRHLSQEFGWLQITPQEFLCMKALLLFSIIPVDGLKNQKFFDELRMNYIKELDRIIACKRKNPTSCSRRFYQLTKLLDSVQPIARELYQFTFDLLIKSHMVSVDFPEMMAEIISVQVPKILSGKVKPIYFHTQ

The test deals with Androgen Receptor (AR) (Homo sapiens, UniProt P10275, H875Y, form not given). Nature of the test: Western Blot analysis of AR protein expression in CWR22Rv1 cells. Particulars: read-out: Reduction of AR expression IC50 (µM) 24 h, Western blotting, 24 h post-incubation. Type of test: cell-based. (Immunoblotting shows a protein as a band on a membrane.)

As for `COc1ccc(/C=C/C(=O)C(C)(CCC(=O)O)C(=O)/C=C/c2ccc(OC)c(OC)c2)cc1OC`, the IC50 is greater than 5 µM.

The term IC50 denotes the midpoint of a concentration-inhibition curve.
